Results from patent publication US7605227B2, “Melanoma antigen peptide analogues” (MannKind Corporation, priority 2005, dated 2009).

Tested on: splenocytes stimulated with wild-type peptide NY-ESO-1157-165
Test: NY-ESO-1 boost, ex vivo IFN-gamma production by splenocytes (ELISA)
Type: in vivo, mice
Details: 10 μM wild-type peptide, 3 and 6 days
Text: Supernatants were harvested and the concentration of IFN-γ measured by ELISA.

Substance: C165V: NY-ESO-1 157-165 analog with V for C at position 165 (SLLMWITQV; UniProt P78358 157-165, looked up, variant C165V) [Peptide C165V, reference compound]
- IFN-gamma production upon ex vivo re-stimulation, in words: failed to induce increased capability of T cells to produce IFN-γ
